The results in this text go back to PMC2918227 (Bioorganic & medicinal chemistry, 2010).

By UniProt entry, the sequences of proteins in these tests, tags left out.
UniProt P28223, whole entry: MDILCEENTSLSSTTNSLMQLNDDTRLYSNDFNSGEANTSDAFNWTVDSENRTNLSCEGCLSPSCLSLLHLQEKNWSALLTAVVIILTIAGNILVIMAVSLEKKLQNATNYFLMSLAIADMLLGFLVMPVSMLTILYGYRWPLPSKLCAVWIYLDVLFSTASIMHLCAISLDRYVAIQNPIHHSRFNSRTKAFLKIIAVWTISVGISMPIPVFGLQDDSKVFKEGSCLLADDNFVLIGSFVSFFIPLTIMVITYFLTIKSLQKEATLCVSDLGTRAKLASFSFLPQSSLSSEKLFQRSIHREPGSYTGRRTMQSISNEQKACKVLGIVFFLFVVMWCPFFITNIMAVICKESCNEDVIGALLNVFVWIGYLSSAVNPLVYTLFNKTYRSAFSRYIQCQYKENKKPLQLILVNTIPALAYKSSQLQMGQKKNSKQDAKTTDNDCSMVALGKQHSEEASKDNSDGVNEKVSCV

This test deals with human 5-HT2A receptor (Homo sapiens, UniProt P28223). The test is described as follows: 5HT2A Ke determination in FLIPR assay. The class given is cell-based.

As for `CCN1CCc2cc(OC)c(OC)c3c2C1Cc1cc2c(cc1-3)OCO2` (stereo not shown) [Compound 8b, 1,2-dimethoxy-6-ethyl-5,6,6a,7-tetrahydro-4H-benzo[de][1,3]benzodioxolo[5,6-g]quinoline], the Kb is over 10 µM. Then `COc1cc2c3c(c1OC)-c1cc4c(cc1CC3NCC2)OCO4` (stereo not shown) [Compound 8a, 1,2-dimethoxy-5,6,6a,7-tetrahydro-4H-benzo[de][1,3]benzodioxolo[5,6-g]quinoline], with over 10 µM; and `COc1cc2c(c(-c3ccc4c(c3)OCO4)c1OC)C(C)N(C)CC2` (stereo not shown) [Compound 6b, 8-(benzo[d][1,3]dioxol-5-yl)-6,7-dimethoxy-1,2-dimethyl-1,2,3,4-tetrahydroisoquinoline], with over 10 µM; and `COc1cc2c(c(-c3ccc4c(c3)OCO4)c1OC)CN(C)CC2` [Compound 6a, 8-(benzo[d][1,3]dioxol-5-yl)-6,7-dimethoxy-2-methyl-1,2,3,4-tetrahydroisoquinoline], with over 10 µM.
